Experimental data from PMC4549712, “Inhibition of human GLUT1 and GLUT5 by plant carbohydrate products; insights into transport specificity” (Scientific Reports, 2015).
Where a chain is given by its changes, count along the chain named. Several values for one entry are separate records, joined by “and”; a condition that tells them apart may be missing. Equal values may be shown once.

Tests used:
GLUT5A396W = molecular target: T1, GLUT5A396W (Homo sapiens, UniProt P22732, A396W); assay: entrance counter-flow transport assay, glucose transport by GLUT5A396W proteoliposomes; assay type: biochemical
T1 construct: Full length DNA was subcloned into pFastBac1 (Life Technologies) vector with a N-terminal hexahistidine tag; hexahistidine (thrombin-cleavable) (N, cleaved yes); made in house; host or cells: Sf21 insect cells (baculovirus, pFastBac1)
T1 sequence (P22732 1-501 A396W): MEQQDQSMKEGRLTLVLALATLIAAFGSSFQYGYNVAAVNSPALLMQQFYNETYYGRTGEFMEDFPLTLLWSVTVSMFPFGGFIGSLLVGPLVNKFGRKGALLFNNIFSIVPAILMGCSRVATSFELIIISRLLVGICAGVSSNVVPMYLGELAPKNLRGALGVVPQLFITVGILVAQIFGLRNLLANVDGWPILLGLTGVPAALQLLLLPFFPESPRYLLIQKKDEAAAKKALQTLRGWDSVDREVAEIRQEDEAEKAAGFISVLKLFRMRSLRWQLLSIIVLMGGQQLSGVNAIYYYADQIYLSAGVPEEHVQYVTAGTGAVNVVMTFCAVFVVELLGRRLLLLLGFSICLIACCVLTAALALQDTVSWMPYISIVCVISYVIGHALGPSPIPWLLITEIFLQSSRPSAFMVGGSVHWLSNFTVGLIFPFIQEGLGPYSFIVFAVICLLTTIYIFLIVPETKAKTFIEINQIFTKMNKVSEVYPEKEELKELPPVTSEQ

GLUT1W388A = molecular target: T2, GLUT1W388A (Homo sapiens, UniProt P11166, W388A); assay: entrance counter-flow transport assay, glucose transport by GLUT1W388A proteoliposomes; assay type: biochemical
T2 construct: Full length DNA was subcloned into pFastBac1 (Life Technologies) vector with a N-terminal hexahistidine tag; hexahistidine (thrombin-cleavable) (N, cleaved yes); made in house; host or cells: Sf21 insect cells (baculovirus, pFastBac1)
T2 sequence (P11166 1-492 W388A): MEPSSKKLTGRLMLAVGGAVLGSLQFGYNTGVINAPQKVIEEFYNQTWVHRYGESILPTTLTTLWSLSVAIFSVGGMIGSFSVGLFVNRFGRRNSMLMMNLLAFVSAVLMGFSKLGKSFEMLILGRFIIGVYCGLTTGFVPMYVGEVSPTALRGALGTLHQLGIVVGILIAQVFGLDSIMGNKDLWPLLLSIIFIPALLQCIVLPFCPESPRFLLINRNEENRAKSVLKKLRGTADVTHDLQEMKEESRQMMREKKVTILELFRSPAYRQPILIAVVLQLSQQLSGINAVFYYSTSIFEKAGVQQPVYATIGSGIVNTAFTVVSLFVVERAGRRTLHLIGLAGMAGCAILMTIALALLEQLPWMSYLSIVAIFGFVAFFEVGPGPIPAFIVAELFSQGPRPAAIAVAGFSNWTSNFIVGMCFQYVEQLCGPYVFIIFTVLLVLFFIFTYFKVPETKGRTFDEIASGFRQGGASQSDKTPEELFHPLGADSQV

[1] = design: method as in PMID 22133440; details: cited from earlier work
human GLUT5 = molecular target: T3, human GLUT5 (Homo sapiens, UniProt P22732); assay: entrance counter-flow transport assay, GLUT5-mediated fructose transport in proteoliposomes; assay type: biochemical
T3 construct: Full length DNA was subcloned into pFastBac1 (Life Technologies) vector with a N-terminal hexahistidine tag; hexahistidine (thrombin-cleavable) (N, cleaved yes); made in house; host or cells: Sf21 insect cells (baculovirus, pFastBac1)
T3 sequence (P22732 1-501): T1 sequence (P22732 1-501 A396W) with W396A
From the text: Human GLUT1 and GLUT5 were expressed recombinantly in insect cell culture. The purified proteins were reconstituted into proteoliposomes. To measure the inhibition of GLUT1 or GLUT5 transport activity we used entrance counter-flow transport assay.
Proteoliposomes were generated according to the protocol from[30] with minor modifications. Liposomes were produced from a 95/5% (w/w) mix of soy phosphatidylcholine and cholesterol (Avanti Polar Lipids). Briefly, hexane-washed and vacuum-dried lipids were resuspended to 20 mg/ml in 100 mM KPi (pH 7.5), and then subjected to 11 freeze-and-thaw cycles in liquid nitrogen and room temperature water. The lipid mixture was extruded through a 0.1 μm polycarbonate filter. Prepared liposomes were destabilized with 4 mM Triton X-100 and mixed with purified protein in a 100:1 (w/w) ratio in 100 mM KPi (pH 7.5) 20% (v/v) glycerol, 200 mM (glucose or fructose). […]
To measure hexose transport, we utilized entrance counter-flow assay. […] The membrane filter was placed into a vial filled with BioSafe II scintillation liquid (Research Products International Corp.), and radioactivity was quantified with LS 6500 scintillation counter (Beckman). […] Data is presented as relative activity normalized to radioactivity of no inhibitor added as 100% and empty proteoliposomes as 0%. […]

Compound | IC50 (GLUT5A396W) [mM] | IC50 (GLUT1W388A) [mM] | solubility in water [1] | IC50 (human GLUT5)
C=C1C[C@@]23CC[C@H]4[C@@](C)(CCC[C@@]4(C)C(=O)O[C@@H]4O[C@H](CO)[C@@H](O)[C@H](O)[C@H]4O)[C@@H]2CC[C@]1(O[C@@H]1O[C@H](CO)[C@@H](O)[C@H](O)[C@H]1O)C3 [Rub, Rubusoside] | 6.8 ± 0.4 | – | – | –
Astragalin-6-glucoside [Ast6G] | 3.7 ± 1.2 | 10.7 ± 2.5 | water soluble | 6.8 mM and ~6 mM
